The target of the experiment is HPV16 E6 C-terminal PDZ ligand (PL) peptide, biotinylated (human papillomavirus type 16) (UniProt P03126). In words: G assay ELISA; immobilised GST-PDZ, biotin-peptide 10 uM.

Amino acid sequences for entries named in this document (tags omitted). Residues count along the entry.
UniProt P03126, 139-158 limits assumed: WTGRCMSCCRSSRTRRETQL

Regarding GST-PIST PDZ domain 1, the Ave OD is 0.386 A450 nm and the OD S/N (ratio vs GST only) was found to be 1.96.
